Where “and” joins values, the source holds several entries; their conditions need not be identical. Identical values can stand only once. This is a selection; strong and weak results do not stand in their true shares. Inconclusive results are not listed. A call without a number means that no potency is given here. Calls of active or inactive are those of the source. Calls come from the whole dose curve; as a rule, active = well fitted inhibition curve with a large enough effect; inconclusive = small, poorly fitted or top-dose-only effect; inactive = flat fitted curve, though single readings scatter.
Potency is the fitted concentration of half-maximal effect.

This assay in a line: qHTS for Inhibitors of human tyrosyl-DNA phosphodiesterase 1 (TDP1): qHTS in cells in presence of CPT. Note: nearly all actives have a fitted effect of over 55% in size. To be noted: chicken DT40 Tdp1-/-;hTDP1 cells + 20 nM CPT, ATP luminescence, 48 h; series mostly up to 46.2 µM. (In general: In qHTS, concentration-response curves come from the screen itself.)
Regarding `COc1ccc(CC(C)NCC(O)c2ccc(O)c(NC=O)c2)cc1` (stereo not given), the Potency entry was “inactive”.

Consider `N[C@@H](Cc1ccc(N(CCCl)CCCl)cc1)C(=O)O`, for which the Potency was active: 531 nM and active: 259 nM.

For `COc1ccc(C[C@@H](C)NC[C@H](O)c2ccc(O)c(NC=O)c2)cc1`, the Potency entry is “inactive”.

As for `NC(Cc1ccc(N(CCCl)CCCl)cc1)C(=O)O` (stereo not given), the Potency was active: 7.31 µM and active: 282 nM.

For `COc1ccc(C[C@H](C)NC[C@@H](O)c2ccc(O)c(NC=O)c2)cc1`, the Potency entry was “inactive”.

(Values after PubChem BioAssay AID686979 (National Center for Advancing Translational Sciences (NCATS), 2013).)
